Measured values: patent EP2424865B1 (Boehringer Ingelheim International GmbH, priority 2009, dated 2010)

By UniProt entry, the sequences of proteins in these tests, tags left out. Where a name states a change or a piece, a line headed by the entry shows the natural chain unless it says otherwise.
UniProt P28845: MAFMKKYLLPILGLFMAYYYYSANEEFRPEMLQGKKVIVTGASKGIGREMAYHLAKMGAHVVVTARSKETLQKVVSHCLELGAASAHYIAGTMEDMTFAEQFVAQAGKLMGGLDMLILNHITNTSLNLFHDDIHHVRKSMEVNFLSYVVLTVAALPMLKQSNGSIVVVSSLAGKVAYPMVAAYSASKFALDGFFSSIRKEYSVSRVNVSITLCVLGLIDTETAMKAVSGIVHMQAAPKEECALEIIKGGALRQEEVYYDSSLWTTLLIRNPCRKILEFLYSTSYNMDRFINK
UniProt P33261, whole entry: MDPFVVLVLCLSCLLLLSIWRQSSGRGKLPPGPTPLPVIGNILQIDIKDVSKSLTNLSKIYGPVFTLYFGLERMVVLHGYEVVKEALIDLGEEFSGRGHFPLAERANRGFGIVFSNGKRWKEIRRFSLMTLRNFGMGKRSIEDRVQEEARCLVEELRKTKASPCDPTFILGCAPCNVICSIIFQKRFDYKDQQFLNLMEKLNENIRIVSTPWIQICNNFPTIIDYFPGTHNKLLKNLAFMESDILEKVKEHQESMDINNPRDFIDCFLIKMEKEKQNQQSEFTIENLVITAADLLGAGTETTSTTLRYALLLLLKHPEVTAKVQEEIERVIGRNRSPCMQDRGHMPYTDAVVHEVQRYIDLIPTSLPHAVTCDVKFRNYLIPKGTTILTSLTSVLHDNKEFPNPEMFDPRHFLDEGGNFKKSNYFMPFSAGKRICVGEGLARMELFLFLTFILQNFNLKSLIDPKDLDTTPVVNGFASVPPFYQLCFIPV
UniProt P11712, whole entry: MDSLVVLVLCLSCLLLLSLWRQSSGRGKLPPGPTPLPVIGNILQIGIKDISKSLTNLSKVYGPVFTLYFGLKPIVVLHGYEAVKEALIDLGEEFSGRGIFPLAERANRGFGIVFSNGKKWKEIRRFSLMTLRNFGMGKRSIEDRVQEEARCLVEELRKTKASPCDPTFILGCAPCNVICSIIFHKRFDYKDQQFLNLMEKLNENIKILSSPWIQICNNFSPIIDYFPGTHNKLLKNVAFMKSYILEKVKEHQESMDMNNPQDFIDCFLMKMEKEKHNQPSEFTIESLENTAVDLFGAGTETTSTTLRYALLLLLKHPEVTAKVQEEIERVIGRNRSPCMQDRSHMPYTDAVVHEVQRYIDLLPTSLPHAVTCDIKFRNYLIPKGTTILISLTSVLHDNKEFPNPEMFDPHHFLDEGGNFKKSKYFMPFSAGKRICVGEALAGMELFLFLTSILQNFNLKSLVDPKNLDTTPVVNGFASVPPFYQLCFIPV

Experiments:
11β-HSD1 [1] = molecular target: T1, 11β-HSD1 (Homo sapiens, UniProt P28845); assay: biochemical
11β-HSD1 [2] = molecular target: T1, 11β-HSD1; settings: read-out: Biological Test Example 1 IC50; Examples
[3] = molecular target: human recombinant cytochrome P450 2C19 (Homo sapiens, UniProt P33261); assay: biochemical
[4] = molecular target: human recombinant cytochrome P450 2C9 (Homo sapiens, UniProt P11712); assay: biochemical
CYP2C9 = CYP2C9 (Homo sapiens, UniProt P11712); assay: biochemical

SMILES: CC(C)C1(CCC(C)(C)O)CCN([C@@H](C)c2ccc(-c3ccn(C)c(=O)c3)cc2)C(=O)O1 (single isomer, unassigned)
IC50 (11β-HSD1 [1]): > 0.1 µM

SMILES: CC(C)C1(CCC(C)(C)O)CCN([C@@H](C)c2ccc(-c3ccn(C)c(=O)c3)cc2)C(=O)O1 (single isomer, unassigned; isomer 1) [84 Isomer 1]
IC50 (11β-HSD1 [2]): > 0.1 µM

IC50 [3]: 22 µM
SMILES: C[C@@H](c1ccc(-c2ccc(=O)n(C(F)F)c2)cc1)N1CC[C@](CC(C)(C)O)(c2ccccc2)OC1=O [Example 4, (S)-3-((S)-1-(4-(1-(difluoromethyl)-6-oxo-1,6-dihydropyridin-3-yl)phenyl)ethyl)-6-(2-hydroxy-2-methylpropyl)-6-phenyl-1,3-oxazinan-2-one]

SMILES: C[C@@H](c1ccc(-c2ccn(C(F)F)c(=O)c2)cc1)N1CC[C@](CC(C)(C)O)(c2ccccc2)OC1=O [Example 5]
IC50 [4]: 37 µM
IC50 [3]: 22 µM

SMILES: C[C@@H](c1ccc(-c2ccn(CCF)c(=O)c2)cc1)N1CC[C@](CC(C)(C)O)(c2ccccc2)OC1=O [Example 25, (S)-3-((S)-1-(4-(1-(2-fluoroethyl)-2-oxo-1,2-dihydropyridin-4-yl)phenyl)ethyl)-6-(2-hydroxy-2-methylpropyl)-6-phenyl-1,3-oxazinan-2-one]
IC50 [3]: 22 µM

SMILES: C[C@@H](c1ccc(-c2ccc(=O)n(C)c2)cc1)N1CC[C@](CCCO)(c2ccccc2)OC1=O [Example 30, (R)-6-(3-hydroxypropyl)-3-((S)-1-(4-(1-methyl-6-oxo-1,6-dihydropyridin-3-yl)phenyl)ethyl)-6-phenyl-1,3-oxazinan-2-one]
IC50 (CYP2C9): 14.3 µM

SMILES: CC(C)n1cc(-c2ccc([C@H](C)N3CC[C@](CC(C)(C)O)(c4ccccc4)OC3=O)cc2)ccc1=O [Example 59, (S)-6-(2-hydroxy-2-methylpropyl)-3-((S)-1-(4-(1-isopropyl-6-oxo-1,6-dihydropyridin-3-yl)phenyl)ethyl)-6-phenyl-1,3-oxazinan-2-one]
IC50 (CYP2C9): 17.7 µM

Read-outs that look alike come from different tables or passages of the source. Each block holds one compound with its values, some of them ahead of it.
